Experiment [1] deals with T1, human A2B receptors (hA2B) (Homo sapiens, UniProt P29275).
T1 sequence (P29275 1-332): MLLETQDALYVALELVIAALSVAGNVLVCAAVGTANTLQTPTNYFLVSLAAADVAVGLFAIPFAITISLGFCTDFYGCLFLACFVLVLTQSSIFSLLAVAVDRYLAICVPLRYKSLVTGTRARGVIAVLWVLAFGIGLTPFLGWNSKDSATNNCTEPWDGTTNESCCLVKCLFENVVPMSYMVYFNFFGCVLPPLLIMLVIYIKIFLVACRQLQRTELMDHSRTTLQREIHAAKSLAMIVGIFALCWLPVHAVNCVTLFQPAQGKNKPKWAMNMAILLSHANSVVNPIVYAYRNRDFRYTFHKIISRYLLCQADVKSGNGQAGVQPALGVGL
Nature of the experiment: Radioligand binding ([125I]ABOPX / [3H]ZM241385) at human A2B receptors expressed in HEK-293 cells. The following applies: read-out: Ki value at human A2B receptors.

Amino acid sequences for entries named in this document (tags omitted).
UniProt P25099, whole entry: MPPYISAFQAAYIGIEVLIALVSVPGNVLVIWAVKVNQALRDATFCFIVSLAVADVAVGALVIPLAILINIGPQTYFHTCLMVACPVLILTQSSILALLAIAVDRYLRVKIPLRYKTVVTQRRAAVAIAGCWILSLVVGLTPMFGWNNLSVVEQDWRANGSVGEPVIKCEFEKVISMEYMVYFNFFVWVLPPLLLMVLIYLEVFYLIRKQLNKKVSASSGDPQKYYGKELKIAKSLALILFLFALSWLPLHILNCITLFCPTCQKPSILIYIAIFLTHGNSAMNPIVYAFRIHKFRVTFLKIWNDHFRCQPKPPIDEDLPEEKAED

A further experiment deals with rat A1 receptors (rA1) (Rattus norvegicus, UniProt P25099). In words: Displacement of [3H]R-PIA binding in rat brain (cerebral cortical) membranes. The following applies: read-out: rA1 Ki or IC50; Table 3.

Regarding `CCCn1c(=O)c2[nH]c(-c3ccc(OCC(=O)Nc4ccc(C#N)cc4)cc3)nc2n(CCC)c1=O` [Compound 27, 8-[4-[((4-Cyano)phenylcarbamoylmethyl)oxy]phenyl]-1,3-di-(n-propyl)xanthine], the Ki in experiment [1] is 0.00197 µM. Consider `CC(=O)c1ccccc1NC(=O)/C=C/c1ccc(-c2nc3c([nH]2)c(=O)n(Cc2ccccc2)c(=O)n3Cc2ccccc2)cc1` [Compound 37, 8-[4-(2-(2-Acetylphenyl)carbamoyl-trans-vinyl)phenyl]-1,3-dibenzylxanthine], for which the Ki at rat A1 receptors (rA1) is 34.3 µM.
